Data from patent publication US11773096B2, “Small-molecule PI5P4K alpha/beta inhibitors and methods of treatment using same” (YALE UNIVERSITY, priority 2018, dated 2023).

Sequences of proteins named here, by UniProt entry; tags and fusion partners are left off. A change or cut given only in a name is not applied to a line headed by its entry.
UniProt P48426: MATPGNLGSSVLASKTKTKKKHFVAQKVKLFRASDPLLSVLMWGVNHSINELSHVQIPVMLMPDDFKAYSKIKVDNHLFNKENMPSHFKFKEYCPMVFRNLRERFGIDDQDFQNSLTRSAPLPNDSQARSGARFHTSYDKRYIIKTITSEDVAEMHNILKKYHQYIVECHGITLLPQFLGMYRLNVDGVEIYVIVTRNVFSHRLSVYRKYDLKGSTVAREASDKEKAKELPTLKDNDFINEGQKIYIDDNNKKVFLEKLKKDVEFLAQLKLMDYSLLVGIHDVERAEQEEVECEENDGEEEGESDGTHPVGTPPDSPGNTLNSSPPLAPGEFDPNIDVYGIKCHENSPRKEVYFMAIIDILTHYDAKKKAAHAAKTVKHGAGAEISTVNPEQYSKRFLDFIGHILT

Target: PI5P4Kα (Homo sapiens, UniProt P48426)
Assay: Competitive fluorescent binding assay with TNP-ATP
Settings: read-out: Kd for TNP-ATP; change in fluorescence, 6 μM TNP-ATP, different amounts of kinase

Work on “2,4,6-trinitrophenol-adenosine triphosphate” yielded a Kd of 13 µM.
